Measurements published in article PMC9964314.

Molecular target: FITC tagged AAV Po1 capsid bipartite NLS peptide (residues 119-158) (porcine adeno-associated virus, strain Po1)
Assay: fluorescence polarisation

Substance: Mouse importin α2 lacking the IBB domain (mImpα2DIBB) (from UniProt P52293 70-529) (domain or fragment)
- Kd: 1 nM
